Measurements: paper PMC12116762, “Topobexin targets the Topoisomerase II ATPase domain for beta isoform-selective inhibition and anthracycline cardioprotection” (Nature Communications, 2025)

By UniProt entry, the sequences of proteins in these tests, tags left out. Residues count along the entry.
UniProt Q02880, 2-1626 limits assumed: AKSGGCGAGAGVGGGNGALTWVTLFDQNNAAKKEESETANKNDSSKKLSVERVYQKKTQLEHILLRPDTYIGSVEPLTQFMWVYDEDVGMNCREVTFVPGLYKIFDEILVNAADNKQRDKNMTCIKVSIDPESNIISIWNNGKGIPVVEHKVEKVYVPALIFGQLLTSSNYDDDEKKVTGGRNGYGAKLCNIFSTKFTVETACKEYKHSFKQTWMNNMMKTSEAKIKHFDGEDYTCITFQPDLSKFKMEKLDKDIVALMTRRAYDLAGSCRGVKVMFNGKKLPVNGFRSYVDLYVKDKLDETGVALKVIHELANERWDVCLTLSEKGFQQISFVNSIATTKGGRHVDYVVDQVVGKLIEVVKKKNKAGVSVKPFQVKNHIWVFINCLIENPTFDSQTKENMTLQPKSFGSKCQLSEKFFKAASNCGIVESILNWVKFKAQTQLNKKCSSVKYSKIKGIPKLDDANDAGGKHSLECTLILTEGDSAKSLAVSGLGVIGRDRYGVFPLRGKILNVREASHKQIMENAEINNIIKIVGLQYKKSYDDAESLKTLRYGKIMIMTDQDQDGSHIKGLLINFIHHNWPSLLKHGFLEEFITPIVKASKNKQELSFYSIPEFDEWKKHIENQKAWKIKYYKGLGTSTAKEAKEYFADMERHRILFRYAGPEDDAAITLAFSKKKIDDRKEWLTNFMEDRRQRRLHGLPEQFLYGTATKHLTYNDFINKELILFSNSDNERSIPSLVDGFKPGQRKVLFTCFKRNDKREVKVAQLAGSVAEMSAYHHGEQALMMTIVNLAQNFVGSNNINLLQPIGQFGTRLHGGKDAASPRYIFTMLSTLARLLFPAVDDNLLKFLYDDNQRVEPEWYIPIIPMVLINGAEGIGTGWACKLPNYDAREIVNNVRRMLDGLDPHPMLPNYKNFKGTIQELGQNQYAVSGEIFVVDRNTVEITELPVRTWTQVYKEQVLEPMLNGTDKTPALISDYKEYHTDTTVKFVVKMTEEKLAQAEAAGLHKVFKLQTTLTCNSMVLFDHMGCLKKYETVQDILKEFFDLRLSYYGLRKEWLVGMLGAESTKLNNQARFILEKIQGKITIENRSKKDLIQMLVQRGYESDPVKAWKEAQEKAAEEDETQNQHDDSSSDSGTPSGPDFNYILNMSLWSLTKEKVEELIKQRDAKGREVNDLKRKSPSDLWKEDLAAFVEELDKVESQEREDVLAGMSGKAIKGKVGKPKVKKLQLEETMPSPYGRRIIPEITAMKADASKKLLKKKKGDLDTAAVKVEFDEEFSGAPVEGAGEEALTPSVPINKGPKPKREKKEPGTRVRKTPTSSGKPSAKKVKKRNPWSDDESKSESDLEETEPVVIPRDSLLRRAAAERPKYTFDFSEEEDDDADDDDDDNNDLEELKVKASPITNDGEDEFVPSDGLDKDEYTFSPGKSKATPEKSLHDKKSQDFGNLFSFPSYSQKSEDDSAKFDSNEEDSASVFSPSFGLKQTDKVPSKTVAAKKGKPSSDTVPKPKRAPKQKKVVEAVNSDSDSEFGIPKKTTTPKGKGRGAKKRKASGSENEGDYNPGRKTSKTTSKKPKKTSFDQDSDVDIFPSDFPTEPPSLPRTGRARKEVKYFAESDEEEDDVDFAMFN

Target: T1, TOP2B-DNA covalent complex (Homo sapiens, UniProt Q02880)
T1 construct: endogenous in cells; host or cells: HEK293F
Assay: RADAR assay, etoposide-induced TOP2B-DNA covalent complex in HEK293F cells
Assay type: cell-based
Conditions: etoposide 5 μM alone; independent replicates
Method: HEK293F cells were plated at 3 × 10^5 cells per well and grown overnight. The next day the wells were incubated with the indicated concentration combinations of topobexin (9) for 30 min followed by etoposide or DMSO control for 60 min (1:1000 ratio for drug dilution). Upon removal of media, cells in each well were immediately lysed with 750 µL DNAzol (Molecular Research Center, Inc.) and the DNA was precipitated by addition of 375 µL of 100% ethanol. This step was then repeated to eliminate protein aggregates. Precipitate from each sample was pelleted via centrifugation at 4 °C and max speed for 5 min. […] The DNA content from each sample was quantified on a nanodrop, and 10 µg of DNA was diluted to a final volume of 200 µL in 8 mM NaOH and 0.1% Tween. […] Western blotting was carried out on an iBind (Thermo Fisher Scientific) and TOP2 proteins were detected using isoform-specific antibody against full length TOP2A (1:250 dilution; HT2A21, Inspiralis) and TOP2B (1:500 dilution; 611493, BD Biosciences) and visualized with anti-rabbit (1:1000 dilution; 926-68071, LI-COR Bio) and anti-mouse (1:1000 dilution; 926-32210, LI-COR Bio) secondary antibodies in iBind running buffer. The blots were imaged on a LI-COR Odyssey Fc and analysed using ImageStudio. […]

COc1cc([C@@H]2c3cc4c(cc3[C@@H](O[C@@H]3O[C@@H]5CO[C@@H](C)O[C@H]5[C@H](O)[C@H]3O)[C@H]3COC(=O)[C@H]23)OCO4)cc(OC)c1O [etoposide, reference compound] showed a TOP2B spot intensity of 127.6.
